Bioassay records: PubChem BioAssay, National Center for Advancing Translational Sciences (NCATS)
RGS4 inhibitor: human RGS4 inhibition; P49798; Transcreener GDP fluorescence polarization, RGS4-accelerated GTP hydrolysis; Potency, µM (doses to about 114 µM), hits mostly inhibitors; hit rate 0.039% among 390,000; active means well fitted inhibition curve with a large enough effect; inconclusive means small, poorly fitted or top-dose-only effect; inactive means no such curve, though single readings can be large or run the other way; further: nearly all actives have a fitted effect of over 75% in size
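MLSMR compounds (23 nl, pin-transferred) preincubated 10 min at room temperature with a 500nM (2x) first reagent, then RGS4 at 900nM (2x) plus Transcreener GDP mix added; fluorescence polarization (620/688 nm) read before and after 90 min at 30 °C.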
Rango dissoc inh: prevents RanGTP from dissociating the Rango-importin beta complex; Potency, µM (top dose mostly 46.1 µM); O95149+P62826; Biochemical FRET Rango-importin beta, RanGTP-induced dissociation; AID 540253; hit rate 0.071% among 340,000; further: nearly all actives have a fitted effect of over 45% in size
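Quantitative HTS using a FRET biosensor: 0.1 uM Rango, 0.25 uM importin beta, 0.6 uM Ran, 2 mM GTP, 0.2 uM RCC1 final, PBS with DTT, Tween-20 and BSA. Post-read taken 45 min after Ran addition.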
Rango complex inh: Rango-importin beta binding inhibition. Q14974. Rango CFP/YFP FRET sensor + importin beta, 45 min. Potency, µM (highest dose often 92.2 µM). hit rate 0.031% among 340,000. AID 540263; further: nearly all actives have a fitted effect of over 15% in size
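FRET biosensor (snurportin 1 IBB flanked by EYFP and cerulean), 50 nM, with compound 5 min, then 0.125 microM importin beta in PBS, 1 mM DTT, 0.02% Tween-20, 0.1% BSA. CFP/YFP ratio read after 45 min at room temperature; pre-read flags interference.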
ERG-DNA inh: ERG Ets/DNA interaction inhibition; hit rate 0.028% among 370,000; Potency, µM (titrated, usually from 76.9 µM), usual class: inhibitors; fluorescence polarization, His-ERG Ets domain / labelled DNA; AID 624246; P11308; active means well fitted inhibition curve with a large enough effect in the polarisation, with a control signal flat; inconclusive means small, poorly fitted or top-dose-only effect, or effect the other way, or a change in a side signal; inactive means no such curve, though single readings can be large or run the other way; the % refers to the polarisation;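 further: polarization taken with two DNA probes labelled with fluorescein and Texas red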
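His-tagged ERG Ets domain (1 uM in the protein solution; 300mM KCl, 50mM Tris-HCl, 1mM EDTA, 1mM DTT, pH 7.5) received compound, then a probe mix of 5 nM fluorescein-DNA and 100nM Texas-615-DNA. Fluorescence polarization was read for both dyes.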
A number is an active result; 0 = inactive; ? = inconclusive; - = not tested or not shown; ! = not active in a repeat. In the library only some 0.14% were active in any assay of this set; here they are far more common. Unless noted, the call rests on the fitted dose curve.

SMILES	RGS4 inhibitor	Rango dissoc inh	Rango complex inh	ERG-DNA inh
O=C(Cn1c(=O)n(-c2ccc(F)cc2)c(=O)c2sc3ccccc3c21)N1CCCC1	0	-	-	0
O=C(CCCCCn1c(=S)[nH]c2ccc(N3CCOCC3)cc2c1=O)NCc1cccc(Cl)c1	0	4.6µM	?	0
O=C(CCCCCn1c(=S)[nH]c2ccc(N3CCOCC3)cc2c1=O)NCc1ccccc1	0	?	?	0
COc1cc(/C=C/C(=O)OCC(=O)N2CCCc3ccccc32)ccc1OCC#N	0	0	0	0
COc1cc(/C=C/C(=O)OCC(=O)N2CCCc3ccccc32)ccc1O	0	15µM	?	0
N#Cc1ccccc1CSc1nnc(-c2ccc(Br)cc2)o1	0	-	-	0
O=C(CSc1nc(-c2ccccc2)[nH]c1-c1ccccc1)Nc1ccc2c(c1)OCCO2	0	-	-	0
Cn1c(=O)cc(SCC(=O)N2CCN(c3ccccc3F)CC2)c2ccc(Cl)cc21	0	-	-	0
COCCn1c(C)c(C)c(S(=O)(=O)c2ccccc2)c1N	0	0	?	35µM
CCOc1ccc(NC(=O)COc2ccc(C(=O)NCc3cccnc3)cc2OC)cc1	0	0.37µM	0	0
COc1ccc(OC)c(NC(=O)CSc2nnc3ccc4ccccc4n23)c1	0	-	-	0
COc1ccc(OC)c(-c2noc(N3CCN(c4cccc(C(F)(F)F)c4)CC3)n2)c1	0	-	-	0
CCOC(=O)NN1C(=O)c2ccccc2NC1c1cccs1 (centres undefined)	0	0	0	35µM
CCOC(=O)NN1C(=O)c2ccccc2NC1c1cccnc1 (centres undefined)	0	0	?	0
O=C(NC1CCCCC1)c1cc2c(Cl)nc3ccccc3c2s1	0	-	-	0
COc1ccc(N2CCN(C(CNS(=O)(=O)c3ccc(OC)c(C)c3)c3ccco3)CC2)cc1 (centres undefined)	0	-	-	0
CC1(C)c2[nH]c3ccccc3c2C[C@@H]2C(=O)N(Cc3ccccc3Cl)C(=O)N21	0	12µM	?	-
Oc1ccc(N=Nc2c(O)ccc3ccccc23)cc1	0	0	0	-
N=C(N)c1ccc(N=Nc2c(O)ccc3c2[nH]c2ccccc23)cc1	0	0	58µM	0
COC(=O)C1=C(C)NC(C)=C(C(=O)OCCCN2CCC(c3ccccc3)(c3ccccc3)CC2)C1c1cccc([N+](=O)[O-])c1 (centres undefined)	0	-	-	-
O=C(COC(=O)c1c2c(nc3ccccc13)/C(=C\c1ccco1)CC2)NC1CCCC1	?	?	?	0
CC1CCCCC1NC(=O)COC(=O)c1c2c(nc3ccccc13)/C(=C\c1ccco1)CC2 (centres undefined)	?	2.3µM	?	0
O=C1C(=O)C(c2ccc(O)cc2O)Oc2cc(O)cc(O)c21 (centres undefined)	0	-	-	-
COc1ccc(CNC(=O)CCCN2C(=O)CSc3c2c(C)nn3-c2ccccc2)c(OC)c1	0	-	-	0
NC(=S)c1cc2cc(Cl)ccc2oc1=O	0	0	26µM	0
SMILES	RGS4 inhibitor	Rango dissoc inh	Rango complex inh	ERG-DNA inh
Cc1nn(C)c(C)c1N1C(=O)c2cccc3c(Br)ccc(c23)C1=O	0	0	0	0
Cc1nn(C)c(C)c1N1C(=O)c2cccc3c(N)ccc(c23)C1=O	0	?	?	35µM
O=C(NCC1(c2ccccc2)CCCC1)C(=O)Nc1cccc(C(F)(F)F)c1	0	-	-	0
Cc1cccc(Cc2nnc(CCC(=O)N(C)CCc3ccccc3)o2)c1	0	0	21µM	0
Cc1cc(-c2nnc(CCC(=O)N(C)CCc3ccccc3)o2)no1	0	0	0	0
CC[C@@H](NS(=O)(=O)c1ccc(C)cc1)C(=O)Oc1ccc2c3c(c(=O)oc2c1)CCC3	0	0	0	0
CC(=O)Oc1ccc2c3c(c(=O)oc2c1)CCCC3	0	21µM	?	0
CCC(NC(=O)OC(C)(C)C)C(=O)Oc1ccc2c3c(c(=O)oc2c1)CCC3 (centres undefined)	0	12µM	?	0
CC(C)Oc1ccc2c3c(c(=O)oc2c1)CCC3	0	0	0	0
COc1ccc(-c2nc3ccc(NC(=O)COC(C)=O)cc3c(=O)n2Cc2ccccc2)cc1COc1ccc(NC(C)=O)cc1	0	-	-	-
COc1ccccc1N1CCN(C(c2cc3ccc(C)cc3[nH]c2=O)c2nnnn2C2CCCC2)CC1 (centres undefined)	0	0	58µM	0
Cc1ccc(-n2c3c(c(=O)[nH]c2=O)C(NC(=O)c2ccccc2C)(C(F)(F)F)C(=O)N3)cc1 (centres undefined)	0	-	-	0
O=C(Cn1ncc2c3ccccc3n(Cc3ccccc3F)c2c1=O)NCc1ccccc1Cl	0	-	-	0
CSc1nc(=O)n2cc(C)ccc2n1	0	0	0	28µM
CCC(=O)Nc1cccc(C(=O)OCc2cccc([N+](=O)[O-])c2)c1	0	0	0	7.1µM
Cc1onc(-c2c(Cl)cccc2Cl)c1C(=O)NN1CCCCCC1	0	0	0	0
Cc1c(C(=O)NN2CCCCC2)nn(-c2ccc(Cl)cc2Cl)c1-c1ccc(I)cc1	30µM!	-	-	-
Nc1nc(Br)c2ccccc2c1-c1ccccc1	0	13µM	?	0
Cc1cc2c(N)cccc2nn1	0	0	0	11µM
CCN(CC)c1ccc(C2C(C(N)=O)=C(C)Nc3nc(SCc4ccccc4Cl)nn32)cc1 (centres undefined)	0	-	-	0
COC(=O)c1ccc(NCc2cc(O)ccc2O)cc1O	0	0	18µM	-
